# From PubChem BioAssay AID720509 (The Scripps Research Institute Molecular Screening Center, 2013)
# Sequences of proteins named here, by UniProt entry; tags and fusion partners are left off.
# UniProt P02675, whole entry, looked up: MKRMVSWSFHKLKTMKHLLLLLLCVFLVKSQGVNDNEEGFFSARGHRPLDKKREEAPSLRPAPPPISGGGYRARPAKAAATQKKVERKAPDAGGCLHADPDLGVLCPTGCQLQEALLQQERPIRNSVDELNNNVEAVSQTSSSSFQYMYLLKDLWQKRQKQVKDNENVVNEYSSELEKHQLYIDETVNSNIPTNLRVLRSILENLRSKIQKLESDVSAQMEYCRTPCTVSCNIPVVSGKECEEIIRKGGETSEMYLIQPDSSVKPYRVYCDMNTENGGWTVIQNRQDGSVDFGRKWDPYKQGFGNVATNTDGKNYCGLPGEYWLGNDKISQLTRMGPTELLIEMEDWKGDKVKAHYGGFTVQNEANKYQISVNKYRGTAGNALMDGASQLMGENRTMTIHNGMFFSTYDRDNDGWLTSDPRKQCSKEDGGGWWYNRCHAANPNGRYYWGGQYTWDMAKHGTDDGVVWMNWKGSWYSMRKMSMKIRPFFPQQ
# The entries are a selection whose mix differs from that of the whole data set. Some salts and complexes are drawn in separate pieces, as the source files them; their charges need not balance. The source made the active and inactive calls.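 Rule for the calls: active = inhibition above a per-campaign cutoff: mean of compounds within control limits plus 3 SD (cut at about 15% in these data); inactive = the rest.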
# Target: Fibrinogen beta chain (Homo sapiens) (UniProt P02675)
# Test: inhibitors of Tn6 peptide binding to fibrin DD(E), primary screen, biochemical, fluorescence polarization, human fibrin, Tn6 probe (AID 720509);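 note: 0% = median of all compound wells on the plate and 100% = blocking peptide control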
# Settings: Fibrin DD(E) TRITC-Tn6 fluorescence polarization displacement; at 8.3 µM; hits give high values
row,Compound,inhibition
1,COc1ccccc1-c1ccccn1.O=[N+]([O-])c1cc([N+](=O)[O-])c(O)c([N+](=O)[O-])c1,inactive: 1.29%
2,CCN(CC)CCCOC(=O)C(O)(c1ccccc1)c1ccccc1,inactive: -0.7%
3,COc1ccccc1OP(C)(=O)Nc1ccc(C)cc1 (centres undefined),inactive: -4.63%
4,Cc1ccc(NP(C)(=O)Oc2ccccc2)c(C)c1 (centres undefined),inactive: 5.24%
5,CCOC(=O)c1ccc(NP(C)(=O)Oc2ccccc2)cc1 (centres undefined),inactive: -2.43%
6,Cc1cc(C)cc(OP(C)(N)=O)c1 (centres undefined),inactive: 1%
7,COc1ccccc1OP(C)(=O)Nc1cc(Cl)ccc1C (centres undefined),inactive: -5.95%
8,COc1ccc(OP(C)(=O)Nc2cccc(F)c2)cc1 (centres undefined),inactive: 4.73%
9,O=[N+]([O-])c1cc([N+](=O)[O-])c(Nc2cccnc2)c([N+](=O)[O-])c1,inactive: 2.17%
10,O=[N+]([O-])c1ccc2c(c1)C=Nc1ccccc1O2,inactive: -6.87%
11,CC(C)(C)c1ccc(OP(C)(=O)Nc2ccc(SC(F)(F)F)cc2)cc1 (centres undefined),inactive: -0.34%
12,Cc1cccc(C)c1OP(C)(N)=O (centres undefined),inactive: 0.97%
13,CP(=S)(Nn1cnnc1)Oc1ccccc1 (centres undefined),inactive: 3.77%
14,CP(=O)(Nc1ccccc1Br)Oc1ccccc1 (centres undefined),inactive: -4.06%
15,COc1ccccc1OP(C)(=O)Nc1ccccc1 (centres undefined),inactive: 0.25%
16,O=[N+]([O-])c1cc([N+](=O)[O-])c(O)c([N+](=O)[O-])c1.c1ccc(Oc2ccncc2)cc1,inactive: -2.53%
17,CCOC(=O)c1ccc(NP(C)(=O)Oc2ccc(OC)cc2)cc1 (centres undefined),inactive: 5.28%
18,CCOP(C)(=S)SCC(=O)NC(C)C(=O)O (centres undefined),inactive: 7.95%
19,CP(=O)(Nc1ccccn1)Oc1ccc(Cl)cc1 (centres undefined),inactive: -3.74%
20,CP(=O)(Nc1ccc(SC(F)(F)F)cc1)Oc1ccc(Cl)cc1 (centres undefined),inactive: -2.79%
21,Cc1cccc(C)c1OP(C)(=O)Nc1ccc(SC(F)(F)F)cc1 (centres undefined),inactive: -4.05%
22,CP(=O)(Oc1ccccc1)OC(c1ccccc1)C(F)(F)F (centres undefined),inactive: 2.56%
23,CCc1ccc(OP(C)(=O)N2CCN(c3ccc([N+](=O)[O-])cc3)CC2)cc1 (centres undefined),inactive: -6.09%
24,CP(=O)(NC(=O)Nc1ccccc1)Oc1ccccc1 (centres undefined),inactive: 0.3%
25,Cc1cc(C)cc(OP(C)(=O)Nc2ccc(SC(F)(F)F)cc2)c1 (centres undefined),inactive: 8.81%

row,Compound,inhibition
1,O=[N+]([O-])c1cc([N+](=O)[O-])c(-c2cnn(-c3ccccc3)c2)c([N+](=O)[O-])c1,inactive: -3.15%
2,Cc1nc2ccc3ccccc3c2s1.O=[N+]([O-])c1cc([N+](=O)[O-])c(O)c([N+](=O)[O-])c1,inactive: -2.19%
3,O=[N+]([O-])c1cc([N+](=O)[O-])c(-n2nnc3ccccc32)c([N+](=O)[O-])c1,inactive: 1.83%
4,CN(Cc1cccnc1)C(=O)COc1ccc(Cl)c(Cl)c1.O=[N+]([O-])c1cc([N+](=O)[O-])c(O)c([N+](=O)[O-])c1,inactive: 2.23%
5,CN1CCCCC1COC(=O)C1(O)c2ccccc2CCc2ccccc21 (centres undefined),inactive: -0.57%
6,COc1ccccc1OP(C)(=O)Nc1c(C)cccc1C (centres undefined),inactive: 2.86%
7,COc1ccc(-c2ccccn2)cc1.O=[N+]([O-])c1cc([N+](=O)[O-])c(O)c([N+](=O)[O-])c1,inactive: -6.13%
8,CP(=O)(Nc1ccc(SC(F)(F)F)cc1)Oc1ccccc1 (centres undefined),inactive: 6.61%
9,CCCOc1ccc(NP(C)(=O)Oc2ccc(Cl)cc2)cc1 (centres undefined),inactive: 3.4%
10,O=[N+]([O-])c1cc([N+](=O)[O-])c(Nc2nnnn2CCO)c([N+](=O)[O-])c1,inactive: -1.13%
11,CCOC(=O)C(CC)C1=NC(C)(C)Cc2ccccc21.O=[N+]([O-])c1cc([N+](=O)[O-])c(O)c([N+](=O)[O-])c1 (centres undefined),inactive: 10.3%
12,CC1=NCCc2c1[nH]c1ccccc21.O=[N+]([O-])c1cc([N+](=O)[O-])c(O)c([N+](=O)[O-])c1,inactive: -2%
13,O=C(O)c1cccc(Nc2c([N+](=O)[O-])cc([N+](=O)[O-])cc2[N+](=O)[O-])c1,inactive: 7.51%
14,Cc1ccc(C)c(NP(C)(=O)Oc2ccccc2)c1 (centres undefined),inactive: 4.95%
15,CP(=O)(Nc1cccc(Br)c1)Oc1ccccc1 (centres undefined),inactive: -5.79%
16,Cc1cc(C)cc(OP(C)(=O)Nc2ccccn2)c1 (centres undefined),inactive: -5.67%
17,COc1ccccc1OP(C)(=O)Nc1cccc(Br)c1 (centres undefined),inactive: 1.96%
18,CCOC(=O)c1ccc(NP(C)(=O)Oc2cc(C)cc(C)c2)cc1 (centres undefined),inactive: 1.79%
19,Cc1cc(C)cc(OP(C)(=O)Nc2ccc(C)cc2C)c1 (centres undefined),inactive: -5.13%
20,O=C(OC1CN2CCC1CC2)c1ccc([N+](=O)[O-])cc1 (centres undefined),inactive: 3.22%
21,O=C(OCCN1CCN(CCOCc2ccccc2)CC1)C(O)(c1ccccc1)c1ccccc1,inactive: -3.64%
22,COc1ccc2c(c1O)-c1c(O)c(OC)cc3c1[C@H](C2)[N+](C)(C)CC3.O=[N+]([O-])c1cc([N+](=O)[O-])c([O-])c([N+](=O)[O-])c1[O-],inactive: 3.03%
23,O=[N+]([O-])c1cc([N+](=O)[O-])c(Nc2ccc(Cl)cc2)c([N+](=O)[O-])c1,inactive: 1.92%
24,CP(=O)(Nc1ccccc1F)Oc1ccccc1 (centres undefined),inactive: -2.4%
25,CC(C)c1ccc(OP(C)(=O)Nc2ccc(SC(F)(F)F)cc2)cc1 (centres undefined),inactive: -0.17%

row,Compound,inhibition
1,Cc1c([N+](=O)[O-])cc([N+](=O)[O-])c(Br)c1[N+](=O)[O-],inactive: -2.58%
2,CCN(CC)CCCOC(=O)C(O)(c1ccccc1)C1CCCCC1 (centres undefined),inactive: 0.79%
3,CP(=O)(Nc1ccccc1)Oc1ccc(F)cc1 (centres undefined),inactive: -3.11%
4,O=[N+]([O-])c1cc([N+](=O)[O-])c(OC2CCCCC2O)c([N+](=O)[O-])c1 (centres undefined),inactive: -2.54%
5,CCCCCOc1ccc(NP(C)(=O)Oc2ccc(Cl)cc2Cl)cc1 (centres undefined),inactive: -10.4%
6,CCN(CC)CCCNc1ccccc1[N+](=O)[O-].O=[N+]([O-])c1cc([N+](=O)[O-])c(O)c([N+](=O)[O-])c1,inactive: -1.5%
7,CCOC(=O)c1ccc(NP(C)(=O)Oc2ccc(F)cc2)cc1 (centres undefined),inactive: -1.71%
8,COc1ccc(OP(C)(=O)Nc2ccc(SC(F)(F)F)cc2)cc1 (centres undefined),inactive: 0.39%
9,O=[N+]([O-])c1ccc(OP2(=O)COCCO2)cc1 (centres undefined),inactive: -3.05%
10,O=[N+]([O-])c1cc([N+](=O)[O-])c(NCC2CCS(=O)(=O)C2)c([N+](=O)[O-])c1 (centres undefined),inactive: -8.99%
11,Cc1cc(-c2cccc3ccccc23)c(C)cn1.O=[N+]([O-])c1cc([N+](=O)[O-])c(O)c([N+](=O)[O-])c1,inactive: -5.06%
12,Cc1c(C(c2ccc3c(c2)OCO3)c2c(C)n(C)n(-c3ccccc3)c2=O)c(=O)n(-c2ccccc2)n1C.O=[N+]([O-])c1cc([N+](=O)[O-])c(O)c([N+](=O)[O-])c1,inactive: 1.5%
13,COc1ccc(OP(C)(=O)Nc2cccc(Br)c2)cc1 (centres undefined),inactive: -8.14%
14,CN(C)CCOC(=O)C(O)(c1ccccc1)C1CCCCC1 (centres undefined),inactive: -7.77%
15,COc1ccc(NP(C)(=O)Oc2ccccc2OC)cc1 (centres undefined),inactive: 4.06%
16,CP(=O)(Nc1ccc2c(c1)OCCO2)Oc1ccccc1 (centres undefined),inactive: -2.34%
17,Cc1ccccc1NP(C)(=O)Nc1ccccc1C,inactive: 2.14%
18,O=[N+]([O-])c1cc([N+](=O)[O-])c(C(F)(F)F)c([N+](=O)[O-])c1O,inactive: -2.18%
19,CP(=O)(Nc1ccc(SC(F)(F)F)cc1)Oc1ccc(F)cc1 (centres undefined),inactive: -3.46%
20,CCOP(C)(=S)SCC(=O)NC(C)(CC)C(=O)O (centres undefined),inactive: 1.79%
21,CCOP(=O)(CC)OCC,inactive: -1.21%
22,CC(C)(C)c1ccc(OP(C)(=O)O)cc1,inactive: 2.14%
23,COc1ccccc1OP(C)(=O)Nc1ccccc1Br (centres undefined),inactive: 5.33%
24,CP(=O)(Nc1ccc(Cl)cc1)Oc1ccc(F)cc1 (centres undefined),inactive: -0.54%
25,CN(C)C(=O)c1c([N+](=O)[O-])cc([N+](=O)[O-])cc1[N+](=O)[O-],inactive: 8.41%

row,Compound,inhibition
1,CCN(CC)CC(O)COC(=O)C(O)(c1ccccc1)C1CCCCC1 (centres undefined),inactive: -3.71%
2,COc1ccc(OP(C)(=O)Nc2ccc(Br)cc2)cc1 (centres undefined),inactive: 2.99%
3,COc1ccccc1OP(C)(=O)Nc1c(C)n(C)n(-c2ccccc2)c1=O (centres undefined),inactive: 2.9%
4,O=C(OCCCN1CCCC1)C(O)(c1ccccc1)C1CCCCC1 (centres undefined),inactive: -1.82%
5,CP(=O)(Oc1ccccc1)N1CCOC1=O (centres undefined),inactive: 4.45%
6,CCc1ccc(OP(C)(=O)Nc2cccnc2)cc1 (centres undefined),inactive: -1.07%
7,Nc1ccc2c(ccc3cccnc32)n1.O=[N+]([O-])c1cc([N+](=O)[O-])c(O)c([N+](=O)[O-])c1,inactive: 5.53%
8,CCOC(=O)c1ccc(NP(C)(=O)Oc2ccc(Cl)cc2)cc1 (centres undefined),inactive: -0.35%
9,CP(=O)(OC12CC3CC(CC(C3)C1)C2)OC12CC3CC(CC(C3)C1)C2,inactive: 2.68%
10,CP(=O)(OCCOc1ccccc1)OCCOc1ccccc1,inactive: -4.52%
11,CP(=O)(Nc1ccc(Cl)cc1Cl)Oc1ccccc1 (centres undefined),inactive: -4.01%
12,CCCCCCCCCCCCCCCC1C[N+](C)(C)CCOP(C)(=O)O1 (centres undefined),inactive: 0.52%
13,O=C1C(O)=C([N+](=O)[O-])C(=O)C(O)=C1[N+](=O)[O-],inactive: 1.04%
14,Cc1cc(C)cc(OP(C)(=O)Nc2cccc(C(F)(F)F)c2)c1 (centres undefined),inactive: 1.86%
15,COc1ccccc1OP(C)(=O)Nc1ccc(C)c(C)c1 (centres undefined),inactive: 1.43%
16,COc1ccc(OP(C)(=O)Nc2ccccc2Br)cc1 (centres undefined),inactive: 0.46%
17,O=[N+]([O-])c1cc([N+](=O)[O-])c(Nc2ccccn2)c([N+](=O)[O-])c1,inactive: -5.54%
18,Cc1c(NP(C)(=O)Oc2ccc(C(C)C)cc2)c(=O)n(-c2ccccc2)n1C (centres undefined),inactive: -9.16%
19,CP(=O)(Nc1ccccn1)Oc1ccccc1 (centres undefined),inactive: -0.04%
20,COc1ccccc1OP(C)(=O)Nc1ccc(C)cc1C (centres undefined),inactive: 11%
21,CCc1ccc(OP(C)(=O)O)cc1,inactive: 6.76%
22,COc1ccccc1OP(C)(=O)Nc1ccc(Br)cc1 (centres undefined),inactive: 5.23%
23,COc1ccc(OP(C)(=O)Nc2ccccn2)cc1 (centres undefined),inactive: 0.85%
24,CN(C)CCOC(=O)C(O)(c1ccccc1)C1CCCC1 (centres undefined),inactive: 5.52%
